scFv variants of Ab-95 (light chain) against a SARS-CoV-2 spike peptide

The target is the same throughout: PDVDLGDISGINAS, from the HR2 region of SARS-CoV-2 spike.

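Phage display of a naive human antibody library on the peptide gave the parent. The library (AAYL52) carries one to three amino acid substitutions per variant, with no insertions or deletions. In AlphaSeq, yeast of one mating type display the scFv and yeast of the other type display the target. The frequency of each diploid, read from paired DNA barcodes, reflects how well the two displayed proteins bind. Read counts were normalised to the haploid input and turned into Kd by a linear fit to BCL2-family pairs of known affinity, for each replicate. Each pool was mated in three replicate cultures.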

The variants keep the heavy chain, the linker and the frameworks of Ab-95 (scFv order VH, a (GGGGS)3 linker, VL).
VH: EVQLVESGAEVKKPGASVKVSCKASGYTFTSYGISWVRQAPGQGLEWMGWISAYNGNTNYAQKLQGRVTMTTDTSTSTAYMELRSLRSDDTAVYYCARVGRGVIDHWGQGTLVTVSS
VL: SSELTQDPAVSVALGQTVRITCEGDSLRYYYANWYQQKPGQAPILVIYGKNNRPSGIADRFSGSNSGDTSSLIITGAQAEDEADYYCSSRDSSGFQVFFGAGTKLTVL

Positions count from residue 1 of the parent VL; D25Y puts Y in place of D.
Scale: log10 of Kd in nM, estimated from mating counts; low values are strong binders.
Averages over replicates are reported, and they cover detected replicates only.
"nd" marks a missing value. The strain was present, yet no cells mated with the target were sequenced in any replicate, which points to weak or no binding.
Nonspecific signal, from three strains lacking the peptide, appeared in 28% of pairings of library AAYL52, centred on 3.91 (5% of these signals below 2.90); values are not corrected for it.

2.88 (1 of 3 replicates) for D25Y/S55T/S92K.
3.93 (1 of 3 replicates) for Y31F/A32M/D91V.
3.52 (3 of 3 replicates) for E23W/S26G/G94K.
4.60 (2 of 3 replicates) for Y30P/N33P/R53E.
4.57 (1 of 3 replicates) for S26F/N33R/D91P.
1.95 (3 of 3 replicates) for Y30Q/A32M/S92M.
3.71 (1 of 3 replicates) for R53P/S55M/S93F.
5.96 (1 of 3 replicates) for Y31S/N52P/D91V.
4.12 (2 of 3 replicates) for P54I/S88K/G94N.
4.97 (2 of 3 replicates) for G24E/R53M/V97G.
2.39 (3 of 3 replicates) for E23S/S92F.
3.48 (3 of 3 replicates) for S88Q/G94M/Q96I.
2.74 (3 of 3 replicates) for Y30P/A32Q/N51E.
5.23 (2 of 3 replicates) for K50S/S93I/G94M.
3.94 (2 of 3 replicates) for Y31D/S89Q/F95T.
1.11 (3 of 3 replicates) for A32P/S88A/R90P.
3.19 (1 of 3 replicates) for Y30F/Y31R/G94F.
2.01 (3 of 3 replicates) for E23K/D25T.
1.54 (3 of 3 replicates) for E23D/L27M.
1.90 (3 of 3 replicates) for E23K/S93K.
2.04 (3 of 3 replicates) for N52T/D91N/V97G.
3.77 (3 of 3 replicates) for L27E/G94S.
2.33 (3 of 3 replicates) for Y30R/N52A/F98R.
4.47 (2 of 3 replicates) for R28V/P54K/F98P.
nd (0 of 3 replicates) for G49V/S88A/S93Q.
4.09 (2 of 3 replicates) for A32W/N51F/S55A.
5.01 (2 of 3 replicates) for A32R/S88W/R90W.
4.64 (1 of 3 replicates) for S26W/R53G.
4.30 (1 of 3 replicates) for N52E/S88K/R90H.
3.94 (2 of 3 replicates) for S26W/S93R/G94N.
3.92 (3 of 3 replicates) for G24P/A32S/V97W.
2.15 (3 of 3 replicates) for Y29G/Y31R/Q96E.
3.36 (2 of 3 replicates) for G24E/D25C/Y31N.
nd (0 of 3 replicates) for S88V/R90K/D91E.
3.34 (2 of 3 replicates) for G24S/R90T/F98E.
2.85 (3 of 3 replicates) for E23T/G49S.
4.27 (1 of 3 replicates) for A32G/N51T/D91C.
nd (0 of 3 replicates) for G24L/N33L/D91Q.
2.95 (2 of 3 replicates) for S93I/G94R/F95K.
3.84 (2 of 3 replicates) for L27D/N33C/F95Y.
1.56 (3 of 3 replicates) for Y30G/Y31C/V97L.
3.32 (1 of 3 replicates) for P54Y/S92Q/Q96R.
2.01 (3 of 3 replicates) for Y29Q/G94V.
nd (0 of 3 replicates) for L27R/D91M/S93R.
4.29 (1 of 3 replicates) for G24Q/P54Q/D91P.
4.17 (2 of 3 replicates) for S26M/S89P/S92T.
4.76 (2 of 3 replicates) for R90N/S93I/G94F.
3.46 (1 of 3 replicates) for G24A/A32D/P54F.
3.11 (1 of 3 replicates) for N51T/S93V/Q96E.
3.88 (2 of 3 replicates) for G24K/Q96L.

A selection of 6 entries from above:

| changes | mean, log10 nM | replicates with signal |
|---|---|---|
| P54I/S88K/G94N | 4.12 | 2 of 3 |
| S26M/S89P/S92T | 4.17 | 2 of 3 |
| G24L/N33L/D91Q | nd | 0 of 3 |
| N51T/S93V/Q96E | 3.11 | 1 of 3 |
| R53P/S55M/S93F | 3.71 | 1 of 3 |
| Y29G/Y31R/Q96E | 2.15 | 3 of 3 |

The measurements come from Engelhart et al. 2022 (doi:10.1038/s41597-022-01779-4) through the FLAb antibody collection.